# From ChEMBL document CHEMBL1138606, “The discovery of tropane derivatives as nociceptin receptor ligands for the management of cough and anxiety” (Bioorg Med Chem Lett, 2009)
# Sequences of proteins named here, by UniProt entry; tags and fusion partners are left off.
# UniProt P35372, whole entry: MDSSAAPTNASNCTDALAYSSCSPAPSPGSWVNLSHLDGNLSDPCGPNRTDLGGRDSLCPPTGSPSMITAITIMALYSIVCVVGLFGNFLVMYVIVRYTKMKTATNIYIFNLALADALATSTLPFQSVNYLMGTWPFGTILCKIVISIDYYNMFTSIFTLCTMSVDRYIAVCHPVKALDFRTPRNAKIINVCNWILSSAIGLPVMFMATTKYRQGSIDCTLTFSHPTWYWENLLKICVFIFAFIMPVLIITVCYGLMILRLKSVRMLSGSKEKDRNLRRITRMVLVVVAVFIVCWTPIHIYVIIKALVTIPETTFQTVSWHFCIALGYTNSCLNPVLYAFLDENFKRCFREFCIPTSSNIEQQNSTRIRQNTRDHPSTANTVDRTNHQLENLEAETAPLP
# Target: Mu-type opioid receptor (Homo sapiens, UniProt P35372)
# Assay: Agonist activity at human mu opioid assessed as stimulation of GDP-induced [35S]GTPgammaS binding
# Type: functional
# Method in brief: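 Functional agonism measured as enhancement of [35S]GTPγS binding in the presence of GDP, using membranes from cells transfected with the receptor. Values are means of 2–3 experiments.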
structure (smiles),measurement,value
NC(=O)C1(c2ccccc2)CC2CCC(C1)N2C(c1ccccc1Cl)c1ccccc1Cl (stereo unspecified),EC50,0.376 µM
